Reference: publication PMC6571122 (Journal of medicinal chemistry, 2019)

Experiments:
T. gondii DHFR (TgDHFR) = molecular target: T1, T. gondii DHFR (TgDHFR) (Toxoplasma gondii, UniProt Q07422); settings: for fold more potent for TgDHFR relative to 1 / fold more selective for TgDHFR relative to 1: relative to pyrimethamine 1
T1 sequence (Q07422 1-610): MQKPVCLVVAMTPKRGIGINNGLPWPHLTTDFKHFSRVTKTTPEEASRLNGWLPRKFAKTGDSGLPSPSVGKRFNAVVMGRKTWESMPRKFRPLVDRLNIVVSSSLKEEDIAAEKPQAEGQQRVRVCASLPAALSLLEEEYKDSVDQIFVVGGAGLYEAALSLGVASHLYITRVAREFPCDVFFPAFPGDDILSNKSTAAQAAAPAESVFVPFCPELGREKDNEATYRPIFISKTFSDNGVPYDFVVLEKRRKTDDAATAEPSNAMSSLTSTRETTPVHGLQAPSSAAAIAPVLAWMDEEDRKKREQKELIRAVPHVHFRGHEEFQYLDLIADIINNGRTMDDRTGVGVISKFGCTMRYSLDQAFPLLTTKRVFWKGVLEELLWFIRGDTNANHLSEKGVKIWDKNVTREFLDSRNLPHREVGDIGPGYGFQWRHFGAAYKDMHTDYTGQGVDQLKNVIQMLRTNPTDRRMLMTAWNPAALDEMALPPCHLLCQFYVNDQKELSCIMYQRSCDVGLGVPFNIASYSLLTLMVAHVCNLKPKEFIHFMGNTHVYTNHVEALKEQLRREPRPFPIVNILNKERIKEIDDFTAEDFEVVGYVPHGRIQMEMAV

MDR1 = test: in vitro; settings: dog, MDCK-MDR1
[1] = system: type I RH strain of T. gondii

| Structure (SMILES) | fold more potent for TgDHFR relative to 1 (T. gondii DHFR (TgDHFR)) | fold more selective for TgDHFR relative to 1 (T. gondii DHFR (TgDHFR)) | efflux ratio at 0.25 h, 2 µM (MDR1) | Selectivity Index (MCF-7 EC50/Tg cell-based EC50) [1] | Selectivity Index (hDHFR IC50/TgDHFR IC50) (T. gondii DHFR (TgDHFR); hDHFR IC50/TgDHFR IC50) |
| --- | --- | --- | --- | --- | --- |
| Nc1ncc(N2CCN(c3cccc(-c4ccccc4)c3)CC2)c(N)n1 [Compound 2] | 16 fold | 6.6 fold | – | – | – |
| COc1ncc(-c2cccc(N3CCN(c4cnc(N)nc4N)CC3)c2)cn1 [Compound 3] | 89 fold | 16 fold | 1.1 | 560 | 200 |
| Nc1ncc(N2CCN(c3cccc(-c4cncnc4)c3)CC2)c(N)n1 [Compound 26, 5-(4-(3-(Pyrimidin-5-yl)phenyl)piperazin-1-yl)pyrimidine-2,4-diamine] | – | 25 fold | – | – | – |
